Earlier results as cited in article PMC9412994 (Pharmaceutics, 2022).

Tested on: P-gp
Conditions: radiolabeled domperidone; attributed to circulating radiometabolites; cited from earlier work

Substance: ^3H-domperidone
- Change of Kp,brain in P-gp deficient mice: not increased
